From article PMC4718804 (eLife, 2015)

Target: NPC1(P202A/F203A) (Homo sapiens, UniProt O15118, F203A/P202A)
Assay: UV crosslinking of U-X to transfected NPC1(P202A/F203A) in 10-3 cells
Conditions: 0.3 µM U-X, Figure 7A

C#CCOc1ccc(C(=O)c2ccc(C(=O)OCCN(CC)CCOC3CCC4(C)C(=CCC5C6CCC(=O)C6(C)CCC54)C3)cc2)cc1 (stereo not shown) [U-X]
crosslinking of U-X to NPC1 with P202A/F203A mutation: did not prevent crosslinking
